{
  "source": "patent EP4837574A1",
  "about": "“USE OF DNJ OR DERIVATIVE THEREOF IN PREPARING ANTI-SENESCENCE DRUG” (dated 2026)",
  "key": {"[1]": {"test_system": "human umbilical vein endothelial cells (Huvec cells)", "assay": "SA-β-Gal staining, H2O2-induced senescence, post-modeling administration (Example 3)", "settings": "30 µM, added after stimulation with H2O2 for 24 hours; FIG. 11", "protocol": "(§1) Culture conditions for human umbilical vein endothelial cells (Huvec cells) are as follows: The Huvec cells were cultured in an ECM culture medium (SclenCell) and passaged and seeded when cultured to a density of 70% to 80% in a culture dish. The cells were washed 1 time with PBS, 0.25% trypsin (Gibco) was added for digestion for 2-3 minutes, and then an ECM culture medium was added to terminate the digestion. The cells were pipetted to be detached, collected into a 15 mL centrifuge tube, and centrifuged at 1,000 rpm for 5 minutes. The supernatant was discarded, a new ECM culture medium was added, and the cells were pipetted uniformly, seeded into a 12-well or 24-well plate (at a density of 70% to 80%), and cultured in a 5% CO2 incubator at 37°C. After cell adherence, the next operation was performed.\n(§2) Working concentrations of each drug and modeling agent: The concentrations of DNJ, DNJ-1, DNJ-3a, DNJ-3b, DNJ-5a, and NMN were all 30 µM; and the concentration of the modeling agent, H2O2, was 200 µM.\n(§3) The workflow for SA-β-Gal staining of the cells is as follows: For the cells cultured in a 6-well plate, a cell culture solution was sucked away, the cells were washed 1 time with PBS, and 1 mL of an SA-β-Gal staining fixative was added for fixation at room temperature for 15 minutes. For other types of culture plates, the dosages of the fixative and subsequent solutions were used in operation with reference to this ratio. The cell fixative was sucked away, and the cells were washed 3 times with PBS, for 3 minutes each time. PBS was sucked away, and 1 mL of a staining working solution was added to each well. A method for formulating the staining working solution is as follows: A β-galactosidase staining solution A (10 µL), a β-galactosidase staining solution B (10 µL), a β-galactosidase staining solution C (930 µL), and an X-Gal solution (50 µL) were used. The cells were incubated overnight at 37°C, and the 6-well plate was sealed with a parafilm or a plastic wrap to prevent evaporation. Photographing was performed for record using a 20× objective under a microfluidic live cell real-time analysis system (Thermo), cell counting was performed using ImageJ software (National Institutes of Health, v 1.8.0), and ANOVA data analysis of multiple groups (mean ± SD) was performed using Graphpad Prism software (GraphPad Software, v 9.0.0).\nA basic method refers to Example 1, with differences in the administration method as follows: after inducing by H2O2 and constructing a human umbilical vein endothelial cell senescence model, treatment with DNJ or its derivatives was performed separately, and the anti-aging activity of drugs was detected."}, "[2]": {"test_system": "doxorubicin (Dox)-induced aging mouse model", "assay": "Dox-induced aging mouse model, physical state and SA-β-Gal staining of frozen organ sections (Example 10)", "settings": "DNJ given simultaneously with intraperitoneal Dox for one week, FIG. 18", "protocol": "An effect of drugs in delaying aging in vivo was detected using a mouse model. Male C57BL/6J mice were selected in the experiment, and randomly divided into a normal group (Control), an aging group (Aging), and an administration group (Aging + DNJ). Dox was intraperitoneally injected into the mice continually for one week to construct an aging mouse model; and the administration group was treated with DNJ simultaneously during the construction of aging mice. The states of the mice were recorded, the mice were sacrificed after one week, and organs such as livers and kidneys were immediately collected for subsequent detection. A cellular senescence β-galactosidase staining kit (Beyotime) was used. Frozen sections were fixed with a fixative for 15 minutes, rinsed 3 times with PBS, and incubated in an SA-β-gal solution at 37°C in the dark for 16-18 hours. The proportion of a stained area was quantitatively determined using ImageJ (NIH) software."}, "[3]": {"test_system": "human umbilical vein endothelial cells (Huvec cells)", "assay": "SA-β-Gal staining, replicative senescence by continuous passage (Example 5)", "settings": "30 µM DNJ 24 hours; cells of the 6th, 9th, and 12th generations; compared with an untreated group; FIG. 13", "protocol": "as §3, with “Photographing was performed for record using a 20× objective under a microfluidic live cell real-time analysis system (Thermo), cell counting was performed using ImageJ software (National Institutes of Health, v 1.8.0), and ANOVA data analysis of multiple groups (mean ± SD) was performed using Graphpad Prism software (GraphPad Software, v 9.0.0).” left out\nThe anti-aging activity of drugs was detected in a replicative senescence model of human umbilical vein endothelial cells induced by continuous passage. […]"}, "[4]": {"test_system": "human umbilical vein endothelial cells (Huvec cells)", "assay": "SA-β-Gal staining, H2O2-induced senescence, simultaneous administration (Example 2)", "settings": "30 µM, simultaneous treatment with 200 µM H2O2 for 24 hours; FIG. 10", "protocol": "as §1, §2, §3\nA basic method refers to Example 1, with differences in the administration method as follows: while inducing by H2O2 and constructing a human umbilical vein endothelial cell senescence model, treatment with DNJ or its derivatives was performed separately, and the anti-aging activity of drugs was detected."}},
  "data": [
    {"smiles": "OC[C@H]1NC[C@H](O)[C@@H](O)[C@@H]1O", "values": [
      {"measurement": "expression of SA-β-Gal and cell senescence", "setting": "[1]", "value": "significantly reduce"},
      {"measurement": "physical states, motor abilities, and the like of the mice", "setting": "[2]", "value": "significantly improved"},
      {"measurement": "number of SA-β-Gal staining-positive cells in organs such as kidneys", "setting": "[2]; frozen sections", "value": "significantly reduced"},
      {"measurement": "number of SA-β-Gal staining-positive cells and the degree of senescence", "setting": "[3]", "value": "significantly reduces"},
      {"measurement": "production of senescent cells induced by H2O2 (number of SA-β-Gal staining-positive cells)", "setting": "[4]", "value": "significantly reduce"}
    ]}
  ]
}
